Experimental data taken from PubChem BioAssay (NCI).
Some tests of the compounds listed are not included; inactive here does not mean inactive elsewhere.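 Results reflect a 48-hour exposure of cells in 96-well plates to compound at five concentrations. Here, GI50 denotes the concentration required for 50% inhibition of growth.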

Experiments:
Assay in all cases: NCI tumour cell line growth inhibition, 48 h; in the data active = GI50 below about 0.43 µM; inactive = the rest
HT29 colon = tested on: HT29 colon
MDA-MB-435 = tested on: MDA-MB-435
IGROV1 ovarian = tested on: IGROV1 ovarian
OVCAR-4 ovarian = tested on: OVCAR-4 ovarian
UACC-257 melanoma = tested on: UACC-257 melanoma
LOX IMVI melanoma = tested on: LOX IMVI melanoma
OVCAR-5 ovarian = tested on: OVCAR-5 ovarian
HL-60(TB) leukemia = tested on: HL-60(TB) leukemia
TK-10 renal = tested on: TK-10 renal
NCI-H460 lung = tested on: NCI-H460 lung
SK-OV-3 ovarian = tested on: SK-OV-3 ovarian
K-562 leukemia = tested on: K-562 leukemia
SNB-19 CNS = tested on: SNB-19 CNS
MALME-3M melanoma = tested on: MALME-3M melanoma
RPMI-8226 leukemia = tested on: RPMI-8226 leukemia
NCI/ADR-RES ovarian = tested on: NCI/ADR-RES ovarian
A549 NSCLC = tested on: A549 NSCLC
SNB-75 CNS = tested on: SNB-75 CNS
A498 renal = tested on: A498 renal
HCT-15 colon = tested on: HCT-15 colon
NCI-H23 lung = tested on: NCI-H23 lung
MCF7 breast = tested on: MCF7 breast
NCI-H322M lung = tested on: NCI-H322M lung
MDA-MB-231 breast = tested on: MDA-MB-231 breast
UACC-62 melanoma = tested on: UACC-62 melanoma
BT-549 breast = tested on: BT-549 breast
SK-MEL-2 melanoma = tested on: SK-MEL-2 melanoma
COLO 205 colon = tested on: COLO 205 colon
SR leukemia = tested on: SR leukemia
HOP-92 NSCLC = tested on: HOP-92 NSCLC
786-0 renal = tested on: 786-0 renal
SF-295 CNS = tested on: SF-295 CNS
NCI-H522 lung = tested on: NCI-H522 lung
KM12 colon = tested on: KM12 colon
MOLT-4 leukemia = tested on: MOLT-4 leukemia
CAKI-1 renal = tested on: CAKI-1 renal
HS 578T breast = tested on: HS 578T breast
MDA-N = tested on: MDA-N
OVCAR-8 ovarian = tested on: OVCAR-8 ovarian
EKVX NSCLC = tested on: EKVX NSCLC
SK-MEL-28 melanoma = tested on: SK-MEL-28 melanoma
M14 melanoma = tested on: M14 melanoma
SF-539 CNS = tested on: SF-539 CNS
PC-3 prostate = tested on: PC-3 prostate
HOP-62 NSCLC = tested on: HOP-62 NSCLC
SW-620 colon = tested on: SW-620 colon
U251 CNS = tested on: U251 CNS
CCRF-CEM leukemia = tested on: CCRF-CEM leukemia
NCI-H226 lung = tested on: NCI-H226 lung
HCT-116 colon = tested on: HCT-116 colon
OVCAR-3 ovarian = tested on: OVCAR-3 ovarian
ACHN renal = tested on: ACHN renal
T-47D breast = tested on: T-47D breast
SK-MEL-5 melanoma = tested on: SK-MEL-5 melanoma
SN12C renal = tested on: SN12C renal

Measured: GI50

CN1CCC(OC(=O)C(O)(c2ccccc2)C2CCCC2)C1 (stereo not given)
inactive: HT29 colon > 100 µM | MDA-MB-435 = > 100 µM | IGROV1 ovarian > 100 µM | OVCAR-4 ovarian > 100 µM | UACC-257 melanoma 92 µM | LOX IMVI melanoma > 100 µM | OVCAR-5 ovarian > 100 µM | HL-60(TB) leukemia > 100 µM | TK-10 renal > 100 µM | NCI-H460 lung > 100 µM | SK-OV-3 ovarian > 100 µM | K-562 leukemia > 100 µM | SNB-19 CNS > 100 µM | MALME-3M melanoma > 100 µM | RPMI-8226 leukemia > 100 µM | NCI/ADR-RES ovarian > 100 µM | A549 NSCLC > 100 µM | SNB-75 CNS > 100 µM | A498 renal 84.8 µM | HCT-15 colon > 100 µM | NCI-H23 lung > 100 µM | MCF7 breast > 100 µM | NCI-H322M lung > 100 µM | MDA-MB-231 breast > 100 µM | UACC-62 melanoma > 100 µM | BT-549 breast > 100 µM | SK-MEL-2 melanoma > 100 µM | COLO 205 colon > 100 µM | SR leukemia > 100 µM | HOP-92 NSCLC > 100 µM | 786-0 renal > 100 µM | SF-295 CNS > 100 µM | NCI-H522 lung > 100 µM | KM12 colon > 100 µM | MOLT-4 leukemia > 100 µM | CAKI-1 renal > 100 µM | HS 578T breast > 100 µM | MDA-N > 100 µM | OVCAR-8 ovarian > 100 µM | EKVX NSCLC > 100 µM | SK-MEL-28 melanoma 92 µM | M14 melanoma > 100 µM | SF-539 CNS > 100 µM | PC-3 prostate > 100 µM | HOP-62 NSCLC > 100 µM | SW-620 colon > 100 µM | U251 CNS > 100 µM | CCRF-CEM leukemia > 100 µM | NCI-H226 lung > 100 µM | HCT-116 colon > 100 µM | OVCAR-3 ovarian > 100 µM | ACHN renal > 100 µM | T-47D breast > 100 µM | SK-MEL-5 melanoma > 100 µM | SN12C renal > 100 µM
